Test results: patent US6627452B1, “Method for screening drug preparations” (priority 1999, dated 2003)

Key:
[1] = system: cell fraction of patient's cultured blood; test: -SH/-SS ratio in the cell fraction of patient's cultured whole heparinized blood (amperometric titration); assay type: cell-based, human
[2] = system: chronic viral hepatitis B; test: Reaferon treatment of patient, Example 6; assay type: in vivo, human; details: 10^6 U intramuscularly each third day for 6 months
Description: Patient K-n A. V. Diagnosis: chronic viral hepatitis B with no delta-agent (virus). […] A course of treatment with Reaferon administered intramuscularly at the dose of 10^6 U each third day for 6 months was provided. The treatment was associated with the normalization of ALT and AST activities, reversal of HBV DNA, HBeAg, and HBsAg, and a stable remission lasted for 8 months.

Reaferon: Reaferon (NPO Vector, Russia), dosed in 10^6 U
-SH/-SS ratio ([1]; Example 2 patient, transverse colon cancer T4N2M1, dosage 0.5 x 10^6 U (in vitro 1:5000), control 1.17): 1.25
-SH/-SS ratio ([1]; Example 2 patient, transverse colon cancer T4N2M1, dosage 1.0 x 10^6 U (in vitro 1:5000), control 1.17): 1.50
-SH/-SS ratio ([1]; Example 2 patient, transverse colon cancer T4N2M1, dosage 3.0 x 10^6 U (in vitro 1:5000), control 1.17): 1.08
-SH/-SS ratio ([1]; Example 2 patient, transverse colon cancer T4N2M1, dosage 6.0 x 10^6 U (in vitro 1:5000), control 1.17): 1.03
-SH/-SS ratio ([1]; Example 6 patient, chronic viral hepatitis B, dosage 0.5 x 10^6 U (in vitro 1:5000), control 1.52): 2.53
-SH/-SS ratio ([1]; Example 6 patient, chronic viral hepatitis B, dosage 1.0 x 10^6 U (in vitro 1:5000), control 1.52): 3.07
-SH/-SS ratio ([1]; Example 6 patient, chronic viral hepatitis B, dosage 3.0 x 10^6 U (in vitro 1:5000), control 1.52): 2.14
-SH/-SS ratio ([1]; Example 6 patient, chronic viral hepatitis B, dosage 6.0 x 10^6 U (in vitro 1:5000), control 1.52): 1.79
ALT and AST activities [2]: normalization
HBV DNA, HBeAg, and HBsAg [2]: reversal
duration of stable remission [2]: 8 months
